In ChEMBL document CHEMBL1124450, “Identification of structural requirements for analogues of atrial natriuretic peptide (ANP) to discriminate between ANP receptor subtypes” (J Med Chem, 1989) one finds IC50 and Ratio data, which are given here for 1 molecule.

SMILES strings stand for the structures.

A short description of assay [1]: Inhibitory activity against non-guanylate cyclase receptor binding site in rabbit lung by using [125I]-ANP-(103-126). The arrangement: species or system Oryctolagus cuniculus.
For assay [2], the target named is T1, Atrial natriuretic peptide receptor (Homo sapiens, UniProt P20594+P16066+P17342).
T1 sequence (P20594 whole entry): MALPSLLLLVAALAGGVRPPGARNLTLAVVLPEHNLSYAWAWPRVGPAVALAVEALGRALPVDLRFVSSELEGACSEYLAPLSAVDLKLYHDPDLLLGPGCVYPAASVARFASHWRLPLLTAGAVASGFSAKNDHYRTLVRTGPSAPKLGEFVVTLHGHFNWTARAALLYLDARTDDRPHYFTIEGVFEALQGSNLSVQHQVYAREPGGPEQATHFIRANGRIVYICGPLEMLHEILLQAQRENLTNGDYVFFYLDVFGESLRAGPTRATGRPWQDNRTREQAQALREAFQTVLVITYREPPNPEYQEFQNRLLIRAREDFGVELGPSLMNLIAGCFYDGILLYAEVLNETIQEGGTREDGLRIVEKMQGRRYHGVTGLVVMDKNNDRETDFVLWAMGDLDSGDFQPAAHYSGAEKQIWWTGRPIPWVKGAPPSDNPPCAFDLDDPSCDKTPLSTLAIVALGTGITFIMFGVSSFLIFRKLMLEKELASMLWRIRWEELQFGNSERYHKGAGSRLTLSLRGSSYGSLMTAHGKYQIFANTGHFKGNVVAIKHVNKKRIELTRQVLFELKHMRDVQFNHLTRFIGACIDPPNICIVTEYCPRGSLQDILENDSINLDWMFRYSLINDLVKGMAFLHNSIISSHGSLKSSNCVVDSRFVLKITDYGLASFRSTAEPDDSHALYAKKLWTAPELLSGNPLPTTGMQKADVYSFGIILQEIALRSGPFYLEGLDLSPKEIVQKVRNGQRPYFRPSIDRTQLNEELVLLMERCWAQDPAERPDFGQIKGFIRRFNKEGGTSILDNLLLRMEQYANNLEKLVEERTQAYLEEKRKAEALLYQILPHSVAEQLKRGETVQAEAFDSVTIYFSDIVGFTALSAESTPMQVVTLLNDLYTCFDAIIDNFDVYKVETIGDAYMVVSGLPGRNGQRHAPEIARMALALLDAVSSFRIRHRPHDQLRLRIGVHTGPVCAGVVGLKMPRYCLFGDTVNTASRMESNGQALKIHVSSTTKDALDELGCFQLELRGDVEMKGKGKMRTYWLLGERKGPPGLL
T1 sequence (P16066 whole entry): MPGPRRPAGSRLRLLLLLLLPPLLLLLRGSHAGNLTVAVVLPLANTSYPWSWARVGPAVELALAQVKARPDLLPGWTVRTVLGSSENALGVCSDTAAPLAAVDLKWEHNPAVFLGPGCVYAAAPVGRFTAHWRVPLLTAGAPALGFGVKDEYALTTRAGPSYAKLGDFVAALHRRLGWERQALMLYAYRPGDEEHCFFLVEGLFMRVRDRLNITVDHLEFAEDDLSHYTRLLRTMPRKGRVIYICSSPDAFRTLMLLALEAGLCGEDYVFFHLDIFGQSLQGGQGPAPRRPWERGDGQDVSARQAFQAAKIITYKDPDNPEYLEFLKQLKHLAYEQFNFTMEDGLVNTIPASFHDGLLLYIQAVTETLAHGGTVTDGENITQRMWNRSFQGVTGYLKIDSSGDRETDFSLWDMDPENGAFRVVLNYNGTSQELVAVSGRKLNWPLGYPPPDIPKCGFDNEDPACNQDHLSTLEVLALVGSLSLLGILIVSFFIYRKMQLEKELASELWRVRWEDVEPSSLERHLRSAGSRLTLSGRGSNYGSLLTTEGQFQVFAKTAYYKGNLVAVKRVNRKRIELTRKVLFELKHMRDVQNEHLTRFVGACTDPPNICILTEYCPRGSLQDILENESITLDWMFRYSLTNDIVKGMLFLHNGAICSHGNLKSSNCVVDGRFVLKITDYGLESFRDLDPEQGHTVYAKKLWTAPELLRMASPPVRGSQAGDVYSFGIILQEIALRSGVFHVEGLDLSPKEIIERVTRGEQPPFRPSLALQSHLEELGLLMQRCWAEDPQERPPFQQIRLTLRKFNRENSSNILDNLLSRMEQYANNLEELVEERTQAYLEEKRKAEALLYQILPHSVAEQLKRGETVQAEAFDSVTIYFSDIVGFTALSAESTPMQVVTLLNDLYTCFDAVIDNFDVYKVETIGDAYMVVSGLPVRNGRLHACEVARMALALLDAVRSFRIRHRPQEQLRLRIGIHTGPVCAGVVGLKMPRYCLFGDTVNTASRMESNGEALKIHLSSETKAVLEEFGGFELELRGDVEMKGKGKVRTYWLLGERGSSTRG
T1 sequence (P17342 whole entry): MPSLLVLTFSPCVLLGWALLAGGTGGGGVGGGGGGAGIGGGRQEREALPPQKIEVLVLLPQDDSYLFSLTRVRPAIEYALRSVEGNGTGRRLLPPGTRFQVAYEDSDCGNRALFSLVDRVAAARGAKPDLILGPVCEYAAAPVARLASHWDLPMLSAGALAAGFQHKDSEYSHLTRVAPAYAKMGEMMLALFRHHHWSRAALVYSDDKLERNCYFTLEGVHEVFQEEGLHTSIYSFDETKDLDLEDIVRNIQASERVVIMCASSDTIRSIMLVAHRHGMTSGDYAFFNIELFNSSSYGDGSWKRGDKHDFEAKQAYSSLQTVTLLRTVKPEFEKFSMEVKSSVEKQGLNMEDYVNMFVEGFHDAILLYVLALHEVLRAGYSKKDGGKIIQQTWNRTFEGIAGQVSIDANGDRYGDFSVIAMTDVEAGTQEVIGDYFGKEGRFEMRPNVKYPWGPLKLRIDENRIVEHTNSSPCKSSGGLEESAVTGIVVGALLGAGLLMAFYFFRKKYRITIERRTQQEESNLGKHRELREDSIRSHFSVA
Briefly: Inhibitory activity against guanylate cyclase coupled receptor binding site in rabbit lung by using [125I]-ANP-(103-126). The format is protein assay, Oryctolagus cuniculus. The following applies: target entry is the homologue from another species.

Assay [3] is described as follows: Ratio of IC50 of guanylate cyclase coupled receptor binding and non-guanylate cyclase coupled binding.

As usually defined, the IC50 is the point on the concentration scale where inhibition reaches its midpoint. High values mean weaker potency in that assay, low ones greater potency in that assay. As to `CC[C@H](C)[C@@H]1NC(=O)[C@H](CCCN=C(N)N)NC(=O)[C@H](CC(=O)O)NC(=O)[C@H]([C@@H](C)CC)NC(=O)[C@H](CCCN=C(N)N)NC(=O)CNC(=O)CNC(=O)[C@H](Cc2ccccc2)NC(=O)[C@@H](NC(=O)[C@H](CO)NC(=O)[C@H](CO)NC(=O)[C@H](CCCN=C(N)N)NC(=O)[C@H](CCCN=C(N)N)NC(=O)[C@H](CC(C)C)NC(=O)[C@@H](N)CO)CSSC[C@@H](C(=O)N[C@@H](CC(N)=O)C(=O)N[C@@H](CO)C(=O)N[C@@H](Cc2ccccc2)C(=O)N[C@@H](CCCN=C(N)N)C(=O)N[C@@H](Cc2ccc(O)cc2)C(=O)O)NC(=O)CNC(=O)[C@H](CC(C)C)NC(=O)CNC(=O)[C@H](CO)NC(=O)[C@H](CCC(N)=O)NC(=O)[C@H](C)NC(=O)CNC1=O`, the IC50 in assay [1] and in assay [2] was 0.054 nM throughout. Besides, the Ratio in assay [3] came to 1.
